Results taken from publication PMC6405850.

Sequences of proteins named here, by UniProt entry; tags and fusion partners are left off. A change or cut given only in a name is not applied to a line headed by its entry.
UniProt P01009: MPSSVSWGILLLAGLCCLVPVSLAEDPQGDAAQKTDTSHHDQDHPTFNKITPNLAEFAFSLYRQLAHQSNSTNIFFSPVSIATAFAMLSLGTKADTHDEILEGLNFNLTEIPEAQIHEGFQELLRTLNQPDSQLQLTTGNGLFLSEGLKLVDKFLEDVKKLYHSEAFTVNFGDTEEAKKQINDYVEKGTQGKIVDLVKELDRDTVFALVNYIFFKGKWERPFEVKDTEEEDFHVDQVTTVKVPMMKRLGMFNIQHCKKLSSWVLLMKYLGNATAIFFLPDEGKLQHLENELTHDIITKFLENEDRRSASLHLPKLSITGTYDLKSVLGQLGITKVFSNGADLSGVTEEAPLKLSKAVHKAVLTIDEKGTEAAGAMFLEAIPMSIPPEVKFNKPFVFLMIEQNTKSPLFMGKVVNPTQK

Biological target: bovine trypsin (bovine)

conserpin-AATRCL (from UniProt P01009 1-418) (designed binder)
stoichiometry of inhibition (SI) of trypsin after denaturation in 6 M guanidine hydrochloride and refolding of the serpin (210 nM trypsin, 0-450 nM serpin): 2
stoichiometry of inhibition (SI): residual trypsin activity (105 nM trypsin, 0-200 nM serpin, 30 min at 37 °C) on Na-benzoyl-L-arginine 4-nitroanilide: 1.64
